Paper PMC5943355

Target: Na+,HCO3- co-transporter NBCn1 (SLC4A7), native in MCF-7 cells (human (endogenous in MCF-7)) (UniProt Q9Y6M7)
Experiment: proximity ligation; in situ PLA (Duolink II) with primary antibodies against NBCn1 and RACK1 in fixed non-confluent (60-70% confluency) MDCK-II or MCF-7 cells; control with only NBCn1 antibody

Q: For “Receptor for Activated C Kinase-1 (RACK1), endogenous in MCF-7 cells (from UniProt P63244 1-317) (natural protein)”, which PLA signal, fold above the control with only NBCn1 antibody is on record?
A: 8 fold
